In the assay the test system is Phosphodiesterase 3 (Felis catus). Briefly: Inhibition of phosphodiesterase 3 enzyme activity by 50%.

In the case of `CC(=O)Nc1ccc(C2=NNC(=O)CC2C)cc1` (stereo unspecified), 900 nM corresponded to half-maximal inhibition (IC50).

Values taken from ChEMBL document CHEMBL1124799, “1,4-bis(3-oxo-2,3-dihydropyridazin-6-yl)benzene analogues: potent phosphodiesterase inhibitors and inodilators” (1990).
